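96-well plates; 48 h exposure; 5 concentrations. Endpoints by linear interpolation between flanking doses. Not reached: highest tested concentration assigned. TGI: total growth inhibition.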
How the values were obtained:
Assay in all cases: inhibition of tumour cell growth, NCI panel, 48 h
[1] = system: SN12C renal
[2] = system: OVCAR-8 ovarian
[3] = system: SR leukemia
[4] = system: KM12 colon
[5] = system: LOX IMVI melanoma
[6] = system: LXFL 529 NSCLC
[7] = system: K-562 leukemia
[8] = system: RXF-631 renal
[9] = system: SK-MEL-2 melanoma
[10] = system: OVCAR-3 ovarian
[11] = system: SF-539 CNS
[12] = system: HOP-18 NSCLC
[13] = system: NCI-H226 lung
[14] = system: IGROV1 ovarian
[15] = system: CCRF-CEM leukemia
[16] = system: TK-10 renal
[17] = system: OVCAR-4 ovarian
[18] = system: UO-31 renal
[19] = system: HCT-116 colon
[20] = system: DLD-1 colon
[21] = system: SK-MEL-5 melanoma
[22] = system: EKVX NSCLC
[23] = system: 786-0 renal
[24] = system: SF-268 CNS
[25] = system: UACC-62 melanoma
[26] = system: M19-MEL melanoma
[27] = system: XF 498 CNS
[28] = system: SNB-78 CNS
[29] = system: CAKI-1 renal
[30] = system: KM20L2 colon
[31] = system: HOP-92 NSCLC
[32] = system: RPMI-8226 leukemia
[33] = system: UACC-257 melanoma
[34] = system: OVCAR-5 ovarian
[35] = system: HCC-2998 colon
[36] = system: ACHN renal
[37] = system: SK-OV-3 ovarian
[38] = system: COLO 205 colon
[39] = system: DMS 114 small cell lung
[40] = system: SW-620 colon
[41] = system: HT29 colon
[42] = system: MALME-3M melanoma
[43] = system: SF-295 CNS
[44] = system: HCT-15 colon
[45] = system: NCI-H23 lung
[46] = system: A549 NSCLC
[47] = system: MOLT-4 leukemia
[48] = system: M14 melanoma
[49] = system: RXF 393 renal
[50] = system: SK-MEL-28 melanoma
[51] = system: NCI-H322M lung
[52] = system: NCI-H460 lung
[53] = system: U251 CNS

## CC1=CC2OC3CC(OC(=O)/C=C/C=C/C(OCCC4=CC(=O)OC4)C(C)O)C(C)(C2(CO)CC1)C31CO1 (stereo not drawn)
[1]
  TGI: 23.1 µM
[2]
  TGI: 17.5 µM
[3]
  TGI: 6.66 µM
[4]
  TGI: 34.9 µM
[5]
  TGI: 7.51 µM
[6]
  TGI: 4.79 µM
[7]
  TGI: 9.45 µM
[8]
  TGI: 27.6 µM
[9]
  TGI: 6.84 µM
[10]
  TGI: 6.47 µM
[11]
  TGI: 4.32 µM
[12]
  TGI: 74.3 µM
[13]
  TGI: 12.8 µM
[14]
  TGI: 6.85 µM
[15]
  TGI: 7.63 µM
[16]
  TGI: 14.8 µM
[17]
  TGI: > 100 µM
[18]
  TGI: 44 µM
[19]
  TGI: > 100 µM
[20]
  TGI: 6.11 µM
[21]
  TGI: 1.87 µM
[22]
  TGI: 9.17 µM
[23]
  TGI: 6.13 µM
[24]
  TGI: 17.4 µM
[25]
  TGI: 5.9 µM
[26]
  TGI: 13.2 µM
[27]
  TGI: 5.97 µM
[28]
  TGI: > 100 µM
[29]
  TGI: 22.1 µM
[30]
  TGI: 10.7 µM
[31]
  TGI: 5.63 µM
[32]
  TGI: > 100 µM
[33]
  TGI: 17.2 µM
[34]
  TGI: 26.6 µM
[35]
  TGI: 8.55 µM
[36]
  TGI: 36.1 µM
[37]
  TGI: 51.6 µM
[38]
  TGI: 8.97 µM
[39]
  TGI: 15.3 µM
[40]
  TGI: 23.7 µM
[41]
  TGI: 33.2 µM
[42]
  TGI: 4.28 µM
[43]
  TGI: 13.1 µM
[44]
  TGI: 7.73 µM
[45]
  TGI: 4.83 µM
[46]
  TGI: 17.3 µM
[47]
  TGI: 7.39 µM
[48]
  TGI: 2.9 µM
[49]
  TGI: 5.28 µM
[50]
  TGI: 6.42 µM
[51]
  TGI: 44.1 µM
[52]
  TGI: 11.3 µM
[53]
  TGI: 7.24 µM

Source: PubChem BioAssay (NCI)
